Test results published in patent US20030211469A1, “Inhibiting hepatitis c virus processing and replication” (priority 2003, published 2003).
Where two headings read alike, the source gives them in different places.

System: HCV NS2/3 (810-1615BK)
Assay type: biochemical, Hepatitis C virus (BK strain)
Conditions: present during synthesis and processing, 30 minutes
Experimental: HCV residues 810-1615 of the BK strain, which includes all of NS2 and most of NS3 (termed 810-1615BK), was produced from the plasmid pCITE 810-1615BK (a gift from Dr. Nicola La Monica) and has been described previously by Pieroni, et al., (1997) J. Virol. 71, 6373. Following plasmid linearization with BLP1, RNA was transcribed with T7 RNA polymerase and purified. Protein translation was in rabbit reticulocyte lysate, 30° C. for 40 minutes using [^35S]-methionine as a label. Translation was then blocked by the addition of cycloheximide (250 μM final) and the samples were immediately frozen on dry ice.
Prior to processing experiments, an aliquot of translated NS2/3 was thawed on ice. Processing of 810-1615BK was initiated by addition to room temperature solutions containing Triton X-100 at 1%, as described by Pieroni, et al., (1997) J. Virol. 71, 6373. The distribution of [^35S]-labeled proteins on dried gels was determined with a Phosphorimager (Molecular Dynamics). Product bands were quantified and expressed as a proportion of total signal in the gel lane so that variations in gel lane loading were normalized.
NS2/3 processing reactions were performed with 810-1615BK. […] (Darke, et al., (1999) J. Biol. Chem. 274, 34511.) Inhibitors were dissolved in DMSO and protected from light. […]

SMILES: C[C@@H]1C[C@H]2O[C@@H]2/C=C\C=C\C(=O)Cc2c(Cl)c(O)cc(O)c2C(=O)O1 [Radicicol]
- NS2/3 Processed (% of Control) (1 μM): 58 % of Control
- NS2/3 Processed (% of Control) (10 μM): 46 % of Control
